The subject of this test is A431 cells. Nature of the test: A431 cell viability (sulforhodamine B total cell number). The test is classed as cell-based. As to conditions: highest concentration of 7 μM, FIG. 5.3B. As for the experimental part: A431 cells were cultured in Dulbecco's Modified Eagle's medium (DMEM, PAA, Pasching, Austria) containing 3.7 g/l sodium bicarbonate, 4.5 g/l 1-glucose, 2 mM 1-glutamine and supplemented with 7.5% (v/v) fetal bovine serum, penicillin (100 IU/ml), streptomycin (100 μg/ml), and amphotericin B (0.25 μg/ml) at 37° C. in a humidified atmosphere containing 5% CO2. 4000 cells/well were seeded into 96-well plates. After 24 hours, medium was replaced by fresh medium spiked with DOX-LCL-antibody diluted in PBS in final concentrations of 25 nM−6.7 μM at least in triplicate. To determine the total cell number, cellular proteins were precipitated by the addition of trichloroacetic acid to 4% after 1 day of growth. Cells were washed with water, dried at RT and stained with 0.4% sulforhodamine B in 1% acetic acid for 30 minutes. Excess dye was washed away with 1% acetic acid and cells were dried at RT. Bound dye was extracted with unbuffered 10 mM Tris for 15 minutes and OD values were measured at 510 nm with a Bio-Rad Novapath Microplate Reader (Bio-Rad Laboratories, Veenendaal, The Netherlands).

From patent US10668162B2, “Method for preparing cell targeting conjugates, and the complexes obtained” (priority 2012, dated 2020) come the findings set out here.

As to DOX-LCL-trastuzumab, the “effect on A431 cell viability compared to unmodified trastuzumab” value is “significant effect”.
